Data published in patent US20250236603A1, “SOLID FORMS OF ALECTINIB AND ALECTINIB SALTS” (Synthon B.V., priority 2022, published 2025).

Test: Solubilities of prepared salts (buffer pH 1.2 with 4% Triton X-100, HPLC)
Conditions: Example 28, 20 mg salt in 10 ml buffer pH 1.2 and 4% Triton X-100, +37° C., 100 rpm

Alectinib ethane sulfonate salt [Ethane sulfonate salt, Form 1]
Solubility after 1 hour: 1270 µg/mL
